# Values quoted from earlier work as cited in patent US10400043B2, “Treatment of diffuse large-cell lymphoma with anti-CD20 antibody” (Biogen Inc., priority 1999, dated 2019).
# System: B cell lymphoblastic tumor
# Settings: mice harboring a B cell lymphoblastic tumor
molecule,measurement,value
"Y2B8: anti-human CD20 murine monoclonal antibody 2B8 attached to yttrium-[90] via the bifunctional chelator MX-DTPA (conjugate, chains of the INN, looked up, yttrium-90 via MX-DTPA chelator, anti-human CD20 murine monoclonal antibody 2B8 attached to yttrium-[90] via the bifunctional chelator MX-DTPA) heavy: QAYLQQSGAELVRPGASVKMSCKASGYTFTSYNMHWVKQTPRQGLEWIGAIYPGNGDTSYNQKFKGKATLTVDKSSSTAYMQLSSLTSEDSAVYFCARVVYYSNSYWYFDVWGTGTTVTVSAPSVYPLAPVCGDTTGSSVTLGCLVKGYFPEPVTLTWNSGSLSSGVHTFPAVLQSDLYTLSSSVTVTSSTWPSQSITCNVAHPASSTKVDKKIEPRGPTIKPCPPCKCPAPNLLGGPSVFIFPPKIKDVLMISLSPIVTCVVVDVSEDDPDVQISWFVNNVEVHTAQTQTHREDYNSTLRVVSALPIQHQDWMSGKEFKCKVNNKDLPAPIERTISKPKGSVRAPQVYVLPPPEEEMTKKQVTLTCMVTDFMPEDIYVEWTNNGKTELNYKNTEPVLDSDGSYFMYSKLRVEKKNWVERNSYSCSVVHEGLHNHHTTKSFSR light: QIVLSQSPAILSASPGEKVTMTCRASSSVSYMHWYQQKPGSSPKPWIYAPSNLASGVPARFSGSGSGTSYSLTISRVEAEDAATYYCQQWSFNPPTFGAGTKLELKRADAAPTVFIFPPSDEQLKSGTASVVCLLNNFYPREAKVQWKVDNALQSGNSQESVTEQDSKDSTYSLSSTLTLSKADYEKHKVYACEVTHQGLSSPVTKSFN",tumor reduction,significant tumor reduction
